In patent US20250295800A1, “CONJUGATE OF A SINGLE DOMAIN ANTIBODY, A SAPONIN AND AN EFFECTOR MOLECULE, PHARMACEUTICAL COMPOSITION COMPRISING THE SAME, THERAPEUTIC USE OF SAID PHARMACEUTICAL COMPOSITION” (SAPREME TECHNOLOGIES B.V., priority 2021, published 2025):

How the values were obtained:
Assay type in all cases: cell-based, human
Conditions in all cases: titrated on fixed 50 pM bivalentVHH-EGFR-dianthin
[1] = test system: A2058 cells (EGFR-/HER2+/-/CD71+); experiment: Cell viability / cell killing (MTS) assay on A2058 cells
Description: (§1) Cells were seeded in a 96 well plate at 5.000-10.000 c/w in 100 μL/well and incubated overnight at 37° C. The next day 10× concentrated treatment-mix samples were prepared in PBS, which contain antibody-conjugated SO1861 (i.e. a ‘binding molecule’ or an ‘endosomal escape enhancing conjugate’ of the invention) and targeted-toxin (i.e. a ‘binding molecule’) both at 10× final concentration. The media was removed from the cell culture plate and replaced by 180 μL culture media, followed by the addition of 20 μL treatment-mix/well. […] After treatment the cells were incubated for 72 hr at 37° C. before the cell viability was determined by a MTS-assay, performed according to the manufacturer's instruction (CellTiter 96® AQueous One Solution Cell Proliferation Assay, Promega). […] Subsequently, the optical density at 492 nm was measured on a Thermo Scientific Multiskan FC plate reader (Thermo Scientific). For quantification the background signal of ‘medium only’ wells was subtracted from all other wells, before the ratio of untreated/treated cells was calculated, by dividing the background corrected signal of untreated wells over the background corrected signal of the treated wells. […]

[2] = test system: SK-BR-3 cells (HER2++/EGFR+/CD71+); experiment: Cell killing (MTS) assay on SK-BR-3 cells
Description: (§2) After treatment the cells were incubated for 72 hr at 37° C. before the cell viability was determined by a MTS-assay, performed according to the manufacturer's instruction (CellTiter 96@AQueous One Solution Cell Proliferation Assay, Promega). Briefly, the MTS solution was diluted 20× in DMEM without phenol red (PAN-Biotech GmbH) supplemented with 10% FBS. The cells were washed once with 200 μL/PBS well, after which 100 μL diluted MTS solution was added/well. The plate was incubated for approximately 20-30 minutes at 37° C. Subsequently, the OD at 492 nm was measured on a Thermo Scientific Multiskan FC plate reader (Thermo Scientific). For quantification the background signal of ‘medium only’ wells was subtracted from all other wells, before the cell viability percentage of treated/untreated cells was calculated, by dividing the background corrected signal of treated wells over the background corrected signal of the untreated wells (×100).

[3] = test system: A431 cells (EGFR++/HER2+/-/CD71+); experiment: Cell viability / cell killing (MTS) assay on A431 cells
Description: as §1

[4] = test system: MDA-MB-468 cells (HER2-/EGFR++/CD71+); experiment: Cell killing (MTS) assay on MDA-MB-468 cells
Description: as §2

Row | Substance | IC50 [1] [nM] | IC50 [2] [nM] | IC50 [3] [nM] | IC50 [4] [nM]
1 | cetuximab-SO1861 (DAR4): cetuximab conjugated to SO1861-EMCH via cysteines, labile hydrazone bond | 400 | 200 | 4 | 0.5
2 | trastuzumab-SO1861 (DAR4): trastuzumab conjugated to SO1861-EMCH via cysteines, labile hydrazone bond | 400 | – | 400 | 400
